Drawing on paper PMC10084252, “PAF‐induced inflammatory and immuno‐allergic ophthalmic diseases and their mitigation with PAF receptor antagonists: Cell and nuclear effects” (Biofactors (Oxford, England), 2022), this text covers Ki for two compounds.

Sequences of proteins named here, by UniProt entry; tags and fusion partners are left off. Residues count along the entry.
UniProt G1TEI7, 1-342: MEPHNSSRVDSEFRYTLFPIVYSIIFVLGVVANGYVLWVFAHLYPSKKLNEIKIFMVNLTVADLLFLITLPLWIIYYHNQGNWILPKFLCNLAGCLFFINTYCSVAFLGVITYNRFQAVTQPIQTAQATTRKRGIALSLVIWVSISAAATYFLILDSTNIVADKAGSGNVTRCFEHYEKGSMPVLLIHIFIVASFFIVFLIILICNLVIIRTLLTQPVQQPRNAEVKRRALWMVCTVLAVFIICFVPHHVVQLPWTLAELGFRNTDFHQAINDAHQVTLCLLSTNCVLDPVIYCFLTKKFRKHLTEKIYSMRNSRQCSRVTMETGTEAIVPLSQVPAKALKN

This experiment addresses PAF receptor (Oryctolagus cuniculus, UniProt G1TEI7). Kind of experiment: [3H]‐PAF receptor binding to rabbit platelet membranes. The note with it: read-out: [3H]‐PAF receptor binding inhibition constant (Ki, nM; Mean ± SEM). From the text:
FIGURE 5 Pharmacological profile of PAR receptor binding to platelet membranes. Figure 5A depicts the concentration‐dependent inhibition by unlabeled PAF receptor antagonists of different affinities for [^3H]‐PAF binding to rabbit platelet membranes in vitro. Figure 5B illustrates the correlation between the pharmacological profile of PAF receptor antagonists competing for [^3H]‐PAF binding to rabbit and human platelet membranes.

The Ki is the dissociation constant of the complex between target and ligand, obtained from inhibition or displacement. Regarding `CCCCCCCCCCCCCCCCCCNC(=O)OC1CCN(C(=O)OC[C@H](COC(=O)N(Cc2cccc[n+]2CC)C(=O)c2ccccc2OC)OC)CC1`, the Ki was determined as 9.5 nM. On to `Cc1nnc2n1-c1sc(C#CCn3c(=O)c4ccccc4c4ccccc43)cc1C(c1ccccc1Cl)=NC2`, for which the Ki is 3.5 nM.
